We go through 1 molecule from ChEMBL document CHEMBL1124013, “Anticonvulsant activities of phenyl-substituted bicyclic 2,4-oxazolidinediones and monocyclic models. Comparison with binding to the neuronal voltage-dependent sodium channel” (J Med Chem, 1988).

This series is described as follows: Rotarod toxicity test for the compound in Phase-II screening was determined. Type of series: organism-based. Conditions: mouse, in vivo. A digest of the protocol: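 Phase II quantitative evaluation in mice by the NINCDS program. Dosing was ip as suspensions in 0.5% methylcellulose or 30% polyethylene glycol 400. ED50 (MES or subcutaneous Metrazol) or TD50 (rotorod) in mg/kg was derived with 95% confidence intervals, measured at the stated time after administration.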

A word on the TD50: it is the 50% point of the dose-response relation for the toxic effect studied. Molecule `NC(=O)N1c2ccccc2C=Cc2ccccc21` [CARBAMAZEPINE] showed a TD50 of 72 mg/kg.
